Test results from patent US20060074046A1, “Oral administration of decitabine salt” (priority 2004, published 2006).

Conditions: t = 24 hr, 0.05 M phosphate buffer, 0.5 mg/mL, ambient

Potency Found (%) At pH 2.5: 54.85%
SMILES: Nc1ncn([C@@H]2O[C@H](CO)[C@@H](O)[C@H]2O)c(=O)n1 [Compound 2, 5-azacytidine, reference compound]
